Reference: PMC7008171 (Frontiers in Pharmacology, 2020)

Test: Pharmacokinetic study in Beagle dogs (i.v., i.g., supralingual, sublingual; crossover, single dose);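 note: Single-dose crossover across four periods with one-week washout, plasma drug levels quantified by LC-MS/MS in positive ESI mode, lower quantification limit 0.2 ng/mL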
Conditions: three-compartmental fit of i.v. profile in Beagle dogs

Cc1nc2n(c(=O)c1CCN1CCC(c3noc4cc(F)ccc34)CC1)CCCC2 [risperidone]
t1/2 (elimination half-life): 2.43 ^e h

Marks after values point to notes of the source that are not given here.
